{"sequences": {"note": "Protein sequences, listed by entry. Tags and fused reporters are not part of them. Residues count along the entry.", "UniProt P01138, 122-241": "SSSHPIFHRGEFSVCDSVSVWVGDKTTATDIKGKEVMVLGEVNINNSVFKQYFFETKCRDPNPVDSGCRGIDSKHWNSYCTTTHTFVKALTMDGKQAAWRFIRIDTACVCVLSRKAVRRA"}, "source": "paper PMC3293900", "about": "“Single Cycle Structure-Based Humanization of an Anti-Nerve Growth Factor Therapeutic Antibody” (PLoS ONE, 2012)", "binders": {"B1": {"name": "Fab fragment of the humanized anti-NGF antibody hum-αD11 (Fab, V domains shown)", "VH": "EVQLVESGGGLVQPGGSLRLSCAASGFSLTNNNVNWVRQAPGKGLEWVGGVWAGGATDYNSALKSRFTISRDNSKNTAYLQMNSLRAEDTAVYYCARDGGYSSSTLYAMDAWGQGTLVTVSS", "VL": "DIQMTQSPSSLSASVGDRVTITCRASEDIYNALAWYQQKPGKAPKLLIYNTDTLHTGVPSRFSGSGSGTDYTLTISSLQPEDFATYFCQHYFHYPRTFGQGTKVEIK", "notes": "as the VH of m3 (hum-αD11 VH); constant part of the Fab heavy chain; not described for the Fab provided by PanGenetics; as the Vκ of m3 (hum-αD11 Vκ); positions L46 and L87 mutated to the rat αD11 residue, Kabat numbering; constant part of the Fab light chain; also called Fab hum-αD11; source: kindly provided by PanGenetics UK Ltd"}}, "molecular_target": "T1, human Nerve Growth Factor (Homo sapiens, UniProt P01138)", "T1 construct": "human Nerve Growth Factor (beta-NGF), mature growth factor; also called hNGF; human NGF; source: obtained according to Covaceuszach et al. [77]", "experiment": "SPR; BIACore; hNGF amine-coupled on CM5 chips (89, 93, 100 RU); Fab hum-αD11 0.39-25 nM injected in HBSEP pH 7.4 with 100 µg/ml BSA, 50 µl/min; triplicate; apparent constants", "conditions": "both partners purified"}
{"binder": "B1", "values": [{"measurement": "koff", "result": "1.1e-05", "unit": "s⁻¹"}, {"measurement": "kon", "result": 380000, "unit": "M⁻¹ s⁻¹"}]}
